Data on 1 compound can be found in ChEMBL document CHEMBL1133472, “Synthesis and evaluation of N,N-dialkyl enkephalin-based affinity labels for delta opioid receptors” (J Med Chem, 2000).

Each structure is given as a SMILES string.

This test concerns mu (Rattus norvegicus) & delta (Mus musculus) opioid receptors. The experiment in a line: Ratio of IC50 against mu opioid receptor to that of delta opioid receptor.

As for `C=CCN(CC=C)[C@@H](Cc1ccc(O)cc1)C(=O)NC(C)C(=O)NC(C)C(=O)N[C@@H](Cc1ccc(NC(=O)CBr)cc1)C(=O)N[C@@H](CC(C)C)C(=O)O` (stereo partly specified), the Ratio is over 255.
